Read-outs that look alike come from different tables or passages of the source.
Legend:
[1] = tested on: L. donovani promastigote cultures; assay type: cell-based, Leishmania donovani
Experimental: The clonal L. donovani cell line LdBOB (derived from MHOM/SD/62/1S-CL2D) was grown as promastigotes at 28°C and as axenic amastigotes at 37°C, as described previously ([25]).
To examine the effects of test compounds on growth in 96-well plates, promastigote or axenic amastigote cultures seeded at 5 × 10^4 parasites mL^–1 were incubated in the presence of 2-fold serial dilutions of test compounds for 72 h. Following incubation, 50 μM resazurin was added to each well and fluorescence (excitation of 528 nm and emission of 590 nm) measured after a further 3 h incubation.
Starting at sublethal concentrations, drug concentrations in 5 independent cultures were increased in a stepwise manner, usually by 2-fold. […] Five clones (Res 1–5) were selected for further biological study.

Sequences of proteins named here, by UniProt entry; tags and fusion partners are left off.
UniProt P11712, whole entry: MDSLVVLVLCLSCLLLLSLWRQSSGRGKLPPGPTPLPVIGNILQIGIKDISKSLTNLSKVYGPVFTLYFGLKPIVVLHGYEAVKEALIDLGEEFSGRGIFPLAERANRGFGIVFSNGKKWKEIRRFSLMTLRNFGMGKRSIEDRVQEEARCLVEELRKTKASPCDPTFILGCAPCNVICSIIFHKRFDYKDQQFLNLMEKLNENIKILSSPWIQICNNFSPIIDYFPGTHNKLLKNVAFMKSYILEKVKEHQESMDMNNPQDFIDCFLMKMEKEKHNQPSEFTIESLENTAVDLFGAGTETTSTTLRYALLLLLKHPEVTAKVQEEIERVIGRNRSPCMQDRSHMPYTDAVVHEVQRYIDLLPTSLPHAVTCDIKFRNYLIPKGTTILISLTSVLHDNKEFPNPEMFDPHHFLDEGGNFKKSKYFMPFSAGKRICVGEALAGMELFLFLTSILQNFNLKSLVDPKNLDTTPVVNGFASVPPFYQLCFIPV

In vivo pharmacokinetics = assay: In vivo pharmacokinetics; parameters: species or system female BALB/c mice; conditions: female, BALB/c, plasma; Mouse, intravenous 2.0 mg/kg; read-out: Plasma Vss
Experimental: Single dose intravenous (IV) pharmacokinetic (PK) studies in male Sprague Dawley rats and IV and oral PK studies in female BALB/c mice were conducted at Monash University. DNDI-6174 was administered by IV infusion (n=3 rats) over 10 min via a cannula implanted in the jugular vein on the day prior to dosing at a dose of 3 mg/kg prepared in 0.9% saline containing 5% DMSO and 2% Solutol HS-15 (1 mL dose volume). Blood was sampled via a cannula implanted in the carotid artery (also on the day prior to dosing) at pre-determined time points up to 24 h post-dose. Samples were transferred to vials containing heparin as an anticoagulant, gently mixed and centrifuged, and plasma separated for subsequent quantitative analysis using LC-MS. […] Mouse blood was sampled via submandibular bleed up to 24 h post-dose (n=2 mice per time point, n=3 samples per mouse) into vials containing heparin and plasma was separated for quantitative analysis as described above. […]
Single dose pharmacokinetic parameters (clearance, volume of distribution and half-life) were initially estimated using non-compartmental methods and oral bioavailability was calculated using the ratio of the dose corrected AUC after oral dosing relative to that after IV administration. Nominal doses were used in the calculations unless the measured dose differed by more than 15% from the nominal dose, in which case the measured dose was used. […]

CYP2C9 = biological target: T1, CYP2C9 (Homo sapiens, UniProt P11712); assay: Cytochrome P450 inhibition, human liver microsomes; assay type: in vitro ADME; conditions: with NADPH preincubation; read-out: Time-dependent inhibition IC50
T1 construct: incubation of isoform-specific substrates with human liver microsomes; from tissue; host or cells: human liver microsomes
Experimental: Direct CYP inhibition studies were conducted using conditions described previously ([43]) following incubation of isoform-specific substrates with human liver microsomes. The formation of known metabolites mediated by a specific CYP isoform was monitored. CYP isoform-specific pathways (and positive control inhibitors) included CYP1A2: phenacetin O-deethylation (furafylline), CYP2B6: bupropion hydroxylation (PPP), CYP2C8: amodiaquine deethylation (quercetin) CYP2C9: tolbutamide methylhydroxylation (sulfaphenazole), CYP2C19: (S)-mephenytoin 4’-hydroxylation (ticlopidine), CYP2D6: dextromethorphan O-demethylation (quinidine), and CYP3A: midazolam 1’-hydroxylation and testosterone 6β-hydroxylation (ketoconazole). Briefly, DNDI-6174 (or positive control inhibitor) was incubated (37°C) at varying concentrations (up to 20 μM) in a 96-well plate with human liver microsomes suspended in buffer with addition of each substrate. The organic solvent content was maintained at less than 1% (v/v). […] Concentrations of the isoform-specific metabolites were quantified by LC-MS (Waters Xevo TQD triple quadrupole MS coupled to a Waters Acquity UPLC system) relative to calibration standards prepared in pre-quenched microsomal matrix. […]
Time dependent inhibition was assessed using an “IC50 shift” method based on a previous publication ([44]). […]

Cc1[nH]c2nc(N)nc(C)c2c1-c1ccc(C#N)c2c1OCO2 [DNDI-6174]
Fold-change versus WT ([1]; DDD01716002 Res 1): 32
Fold-change versus WT ([1]; DDD01716002 Res 2): 34
Fold-change versus WT ([1]; DDD01716002 Res 3): 3.5
Fold-change versus WT ([1]; DNDI-6174 Res 1): 18
Fold-change versus WT ([1]; DNDI-6174 Res 3): 62.5
Fold-change versus WT ([1]; DNDI-6174 Res 4): 112
Fold-change versus WT ([1]; DNDI-6174 Res 5): 6
Vd (In vivo pharmacokinetics): 1.12 L/kg
IC50 (CYP2C9): 16.4 µM

Reference: PMC7615677, “DNDI-6174, a preclinical candidate for visceral leishmaniasis that targets the cytochrome bc1 complex” (Science translational medicine, 2023)
